Earlier results as cited in PMC3169519 (PLoS Computational Biology, 2011).

Details: cancer patients; cited from earlier work

CCc1c2c(nc3ccc(OC(=O)N4CCC(N5CCCCC5)CC4)cc13)-c1cc3c(c(=O)n1C2)COC(=O)[C@]3(O)CC [CPT11, irinotecan]
time CPT11 remained in the blood: approximately 24 h
